Test results published in ChEMBL document CHEMBL1147770, “Design, synthesis and structure-activity relationships of new phosphinate inhibitors of MurD” (Bioorg Med Chem Lett, 2006).

Molecular target: T1, UDP-N-acetylmuramoylalanine--D-glutamate ligase (Escherichia coli K-12) (UniProt P14900)
T1 sequence (whole entry): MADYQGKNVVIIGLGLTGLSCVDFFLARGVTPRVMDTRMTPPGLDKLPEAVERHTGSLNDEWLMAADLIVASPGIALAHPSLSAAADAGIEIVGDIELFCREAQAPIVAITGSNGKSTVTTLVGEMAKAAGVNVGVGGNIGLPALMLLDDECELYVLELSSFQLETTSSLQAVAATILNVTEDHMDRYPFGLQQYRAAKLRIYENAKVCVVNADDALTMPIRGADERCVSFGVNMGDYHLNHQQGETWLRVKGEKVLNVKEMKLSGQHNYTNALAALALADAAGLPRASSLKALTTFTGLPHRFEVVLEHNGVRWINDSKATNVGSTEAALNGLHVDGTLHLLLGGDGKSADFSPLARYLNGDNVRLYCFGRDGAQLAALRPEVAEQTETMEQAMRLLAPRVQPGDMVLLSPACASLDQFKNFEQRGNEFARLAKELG
Test: Residual activity of MurD from Escherichia coli at 1 mM

An Activity of 17% was found for `CC(NC(=O)/C=C/c1ccc2c(c1)OCO2)P(=O)(O)CC(CCC(=O)O)C(=O)O` (stereo unspecified) in this work.
